Results published in PubChem BioAssay AID1347404 (Pan Lab, Icahn School of Medicine at Mount Sinai, 2020).
The entries are a selection whose mix differs from that of the whole data set. Calls of active or inactive are those of the source. Cut-off read from the data, not from the text of the source: active = inhibition above about 25%; inactive = the rest.

Amino acid sequences for entries named in this document (tags omitted).
UniProt P62877, whole entry, looked up: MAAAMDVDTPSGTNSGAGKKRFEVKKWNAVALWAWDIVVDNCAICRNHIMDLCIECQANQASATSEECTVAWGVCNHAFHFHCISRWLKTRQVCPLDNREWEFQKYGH
UniProt Q13616, whole entry, looked up: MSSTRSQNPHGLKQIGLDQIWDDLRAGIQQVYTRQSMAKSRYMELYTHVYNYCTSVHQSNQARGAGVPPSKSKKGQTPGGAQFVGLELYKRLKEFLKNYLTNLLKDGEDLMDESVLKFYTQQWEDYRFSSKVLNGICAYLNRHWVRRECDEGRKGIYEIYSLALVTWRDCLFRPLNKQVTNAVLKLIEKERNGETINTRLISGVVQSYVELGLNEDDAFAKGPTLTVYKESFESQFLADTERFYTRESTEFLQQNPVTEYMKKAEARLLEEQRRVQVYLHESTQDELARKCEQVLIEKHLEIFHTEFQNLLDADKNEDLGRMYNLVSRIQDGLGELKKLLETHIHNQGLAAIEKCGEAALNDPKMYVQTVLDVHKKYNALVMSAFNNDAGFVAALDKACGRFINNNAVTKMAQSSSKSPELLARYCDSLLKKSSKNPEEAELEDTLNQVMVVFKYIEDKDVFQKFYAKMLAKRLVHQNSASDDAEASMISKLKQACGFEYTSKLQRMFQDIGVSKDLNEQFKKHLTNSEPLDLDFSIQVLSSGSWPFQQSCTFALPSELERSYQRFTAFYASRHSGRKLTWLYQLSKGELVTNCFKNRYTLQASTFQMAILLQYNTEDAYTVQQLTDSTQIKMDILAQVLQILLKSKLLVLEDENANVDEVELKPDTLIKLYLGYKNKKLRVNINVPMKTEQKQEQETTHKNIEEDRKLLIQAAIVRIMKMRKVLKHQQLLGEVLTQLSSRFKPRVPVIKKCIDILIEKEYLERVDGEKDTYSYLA

These compounds were tested against E3 ubiquitin-protein ligase RBX1 (Homo sapiens) + Cullin-1 (Homo sapiens) (UniProt P62877+Q13616) (assay: inhibitors of human ROC1-CUL1 ubiquitin ligase activity (AID 1347404)). Settings: in vitro K48 di-Ub FRET, acceptor:donor ratio, 45 min; at 10 µM; active compounds read high.
`CCN(CCCl)Cc1csc2ccc(I)cc12` was tested, and the inhibition was inactive: -3.82%. With `O=C(OC1CN2CCC1CC2)c1cccc2[nH]cnc12` (stereo not drawn) the inhibition was inactive: 6.42%. For `O=[N+]([O-])c1cc([N+](=O)[O-])c(-c2ccn[nH]2)s1`, the inhibition was inactive: -3.21%. In the case of `O=C(NC(Sc1ccc(Cl)cc1)C(Cl)(Cl)Cl)c1ccccc1` (stereo not drawn), the inhibition is reported as inactive: 4.06%. `O=[N+]([O-])c1cc([N+](=O)[O-])c(Nc2ccccc2)c([N+](=O)[O-])n1` was tested, and the inhibition was inactive: -6.02%. `COc1ccc2nc(NP(=O)(c3ccccc3)c3ccccc3)sc2c1` was tested, and the inhibition was inactive: 9.04%. In the case of `Cc1ccccc1C(=O)NC(Sc1ccccc1)C(Cl)(Cl)Cl` (stereo not drawn), the inhibition is reported as inactive: -7.59%. For `Cc1nc2c(C)cccc2c2c1CC(C(Cl)Cl)S2` (stereo not drawn), the inhibition was inactive: 9.64%. `O=C(Nc1ccc([N+](=O)[O-])cc1[N+](=O)[O-])c1ccc([N+](=O)[O-])cc1[N+](=O)[O-]` was tested, and the inhibition was inactive: 11.9%. `COc1ccc(C(=O)OC2CN3CCC2CC3)cc1OC` (stereo not drawn) was tested, and the inhibition was inactive: 0.289%. With `CCOc1ccc(C(=O)OC2CN3CCC2CC3)cc1` (stereo not drawn) the inhibition was inactive: 16.5%. In the case of `Cc1ccc2c(c1)n1nnnc1c1nnnn21`, the inhibition is reported as inactive: 4.68%. In the case of `N#CCN(N=Nc1nonc1N)c1nonc1N`, the inhibition is reported as inactive: 1.45%. For `O=[N+]([O-])c1cc([N+](=O)[O-])c(-c2[nH]ncc2[N+](=O)[O-])s1`, the inhibition was inactive: 12.8%. With `Cc1nn2c(c1[N+](=O)[O-])n1nc(C)c([N+](=O)[O-])c1n1nc(C)c([N+](=O)[O-])c21` the inhibition was inactive: 2.84%. `ClC1(Cl)SC12C1CC3CC(C1)CC2C3` (stereo not drawn) was tested, and the inhibition was inactive: -6%. In the case of `COC(=O)C12C3C4CC5(SCCS5)C5(Br)C3C1C5C42` (stereo not drawn), the inhibition is reported as inactive: -1.25%. In the case of `COC(=O)[C@@H]1CSC(C(Cl)(Cl)Cl)N1C(C)=O` (stereo partly drawn), the inhibition is reported as inactive: -1.23%. In the case of `N=C1N=CN(CC(O)CO)C2N=C(N3CCOCC3)NC12` (stereo not drawn), the inhibition is reported as inactive: 6.83%. In the case of `n1[nH]nc2c1c1n[nH]nc1c1n[nH]nc21`, the inhibition is reported as inactive: 7.08%. `CCC1=CC2Cc3nc4ccc(Cl)cc4c(N)c3C(C1)C2` (stereo not drawn) was tested, and the inhibition was inactive: -0.179%. `COc1ccc(/C=C/C(=O)OC2CN3CCC2CC3)cc1` (stereo not drawn) was tested, and the inhibition was inactive: -3.36%. For `CN(CCCl)Cc1cc2cc(I)ccc2s1`, the inhibition was inactive: 5.29%. For `COc1cc(-n2cnnn2)ccc1-n1cnnn1`, the inhibition was inactive: 5.79%. In the case of `O=C(NC(SC1=NCCS1)C(Cl)(Cl)Cl)c1cccc(I)c1` (stereo not drawn), the inhibition is reported as inactive: 1.65%. With `CN=c1cc(C)on1P(=S)(Oc1ccccc1)Oc1ccccc1` the inhibition was inactive: -0.707%. For `COc1cc(C2NCCC3(OCCO3)C2(C)C)cc(OC)c1OC` (stereo not drawn), the inhibition was inactive: 7.75%. `N#CC1(OC(=O)c2ccccc2)CN2CCC1CC2` (stereo not drawn) was tested, and the inhibition was inactive: 4.51%.
